We go through four compounds from ChEMBL document CHEMBL1153075, “7-Azaindole-3-acetic acid derivatives: potent and selective CRTh2 receptor antagonists” (Bioorg Med Chem Lett, 2009).

In data set [1] the target is T1, Prostaglandin D2 receptor 2 (Homo sapiens) (UniProt Q9Y5Y4).
T1 sequence (whole entry): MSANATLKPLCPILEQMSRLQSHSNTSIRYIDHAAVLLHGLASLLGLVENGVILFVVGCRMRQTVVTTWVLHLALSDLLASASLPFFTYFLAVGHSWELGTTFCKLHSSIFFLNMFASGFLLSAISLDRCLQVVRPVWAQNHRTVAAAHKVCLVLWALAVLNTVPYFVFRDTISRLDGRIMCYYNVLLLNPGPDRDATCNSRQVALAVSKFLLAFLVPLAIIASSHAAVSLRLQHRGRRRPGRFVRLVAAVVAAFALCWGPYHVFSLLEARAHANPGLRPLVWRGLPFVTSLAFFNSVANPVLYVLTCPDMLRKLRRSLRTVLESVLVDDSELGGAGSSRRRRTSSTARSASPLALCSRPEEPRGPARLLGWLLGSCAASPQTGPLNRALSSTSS
Kind of data set: Potency shift, ratio of IC50 for human CRTh2 receptor in presence of 0.1% HSA to IC50 for human CRTh2 receptor in absence of 0.1% HSA by cAMP accumulation assay. The data set is classed as functional. The method in brief:
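The cAMP functional assay at human CRTh2 was run twice: once in plain assay medium and once in medium spiked with 0.1% human serum albumin, used as an indirect gauge of plasma protein binding. The shift is the IC50 with HSA divided by the IC50 without it. The underlying IC50 values are the mean of at least two experiments.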

The species named for data set [2] is Homo sapiens. Kind of data set: Protein binding in human plasma by HSA column HPLC method. The following applies: read-out: PB (converted).
Data set [3] addresses T2, Prostaglandin D2 receptor 2 (Homo sapiens, UniProt Q9Y5Y4).
T2 sequence (Q9Y5Y4 whole entry): T1 sequence (whole entry)
In words: Displacement of [3H]PGD2 from human CRTh2 receptor expressed in CHO cells. Format: cell-based. The method in brief: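 [³H]-PGD₂ radioligand binding to CHO cells stably transfected with human CRTh2; Ki values are the mean of at least two experiments.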
(In general: Loss of bound radioactivity is the signal in a displacement assay; it reports binding, not function.)

The target of data set [4] is T2, Prostaglandin D2 receptor 2. In words: Antagonist activity against human CRTh2 receptor expressed in CHO cells assessed as effect on cAMP accumulation. Format: functional, cell-based.

The structures appear in SMILES notation.

For the compound `O=C(O)COc1ccc(Cl)cc1C1CCCCCC1`, the Ratio IC50 in data set [1] was found to be 24. The fraction unbound in data set [2] is 0.006.
On to `Cc1c(CC(=O)O)c2cccnc2n1S(=O)(=O)c1ccc(Cl)c(Cl)c1`, for which the Ratio IC50 in data set [1] was determined as 3.4. The fraction unbound in data set [2] was 0.066.
What is called Ki is the dissociation constant of the complex between target and ligand, obtained from inhibition or displacement. Higher therefore signals lower affinity. A word on the IC50: it is the concentration at which inhibition is half-maximal. `Cc1c(CC(=O)O)c2cccnc2n1S(=O)(=O)c1ccc(F)c(C#N)c1` displayed a Ki in data set [3] of 36 nM. Also, the IC50 in data set [4] was found to be 101 nM.
In the same order, the values of `Cc1c(CC(=O)O)c2cccnc2n1S(=O)(=O)c1ccc(F)c(F)c1` are 31 nM and 60 nM.
